The text below walks through data of PMC3138873 (Biochemical pharmacology, 2011).

Chains of the proteins cited; added tags and fusions are not shown. Residues count along the entry.
UniProt P30803, 398-765 limits assumed: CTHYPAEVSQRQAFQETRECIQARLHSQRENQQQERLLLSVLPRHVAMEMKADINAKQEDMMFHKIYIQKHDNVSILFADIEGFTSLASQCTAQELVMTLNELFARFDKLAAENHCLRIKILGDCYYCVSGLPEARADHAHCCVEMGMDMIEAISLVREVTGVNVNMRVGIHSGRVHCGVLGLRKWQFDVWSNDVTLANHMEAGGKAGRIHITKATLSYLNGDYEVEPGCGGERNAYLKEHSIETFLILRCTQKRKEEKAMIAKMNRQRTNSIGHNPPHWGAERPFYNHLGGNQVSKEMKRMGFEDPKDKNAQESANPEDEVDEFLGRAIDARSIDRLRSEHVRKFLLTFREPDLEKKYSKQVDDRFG

One assay addresses VC1:IIC2 (UniProt P26769+P30803). In words: Inhibition of the catalytic activity of purified VC1:IIC2. In kind it is biochemical, mammalian.
The target of assay [1] is T1, AC5 (Canis lupus familiaris, UniProt P30803). The assay can be described thus: AC activity assay in Sf9 membranes expressing recombinant AC5. In kind it is biochemical, mammalian. The note with it: for Ki: read-out: AC5 Ki, Sf9 membranes, 5 mM MnCl2, 100 μM FS, mean ± SD.
The target of assay [2] is T1, AC5. The note with it: read-out: AC5 Ki; Sf9 membranes, 5 mM MnCl2, 100 μM FS; mean ± SD; cited from earlier work.
In the next assay the target is T2, AC2 (Rattus norvegicus, UniProt P26769).
T2 sequence (P26769 1-1090): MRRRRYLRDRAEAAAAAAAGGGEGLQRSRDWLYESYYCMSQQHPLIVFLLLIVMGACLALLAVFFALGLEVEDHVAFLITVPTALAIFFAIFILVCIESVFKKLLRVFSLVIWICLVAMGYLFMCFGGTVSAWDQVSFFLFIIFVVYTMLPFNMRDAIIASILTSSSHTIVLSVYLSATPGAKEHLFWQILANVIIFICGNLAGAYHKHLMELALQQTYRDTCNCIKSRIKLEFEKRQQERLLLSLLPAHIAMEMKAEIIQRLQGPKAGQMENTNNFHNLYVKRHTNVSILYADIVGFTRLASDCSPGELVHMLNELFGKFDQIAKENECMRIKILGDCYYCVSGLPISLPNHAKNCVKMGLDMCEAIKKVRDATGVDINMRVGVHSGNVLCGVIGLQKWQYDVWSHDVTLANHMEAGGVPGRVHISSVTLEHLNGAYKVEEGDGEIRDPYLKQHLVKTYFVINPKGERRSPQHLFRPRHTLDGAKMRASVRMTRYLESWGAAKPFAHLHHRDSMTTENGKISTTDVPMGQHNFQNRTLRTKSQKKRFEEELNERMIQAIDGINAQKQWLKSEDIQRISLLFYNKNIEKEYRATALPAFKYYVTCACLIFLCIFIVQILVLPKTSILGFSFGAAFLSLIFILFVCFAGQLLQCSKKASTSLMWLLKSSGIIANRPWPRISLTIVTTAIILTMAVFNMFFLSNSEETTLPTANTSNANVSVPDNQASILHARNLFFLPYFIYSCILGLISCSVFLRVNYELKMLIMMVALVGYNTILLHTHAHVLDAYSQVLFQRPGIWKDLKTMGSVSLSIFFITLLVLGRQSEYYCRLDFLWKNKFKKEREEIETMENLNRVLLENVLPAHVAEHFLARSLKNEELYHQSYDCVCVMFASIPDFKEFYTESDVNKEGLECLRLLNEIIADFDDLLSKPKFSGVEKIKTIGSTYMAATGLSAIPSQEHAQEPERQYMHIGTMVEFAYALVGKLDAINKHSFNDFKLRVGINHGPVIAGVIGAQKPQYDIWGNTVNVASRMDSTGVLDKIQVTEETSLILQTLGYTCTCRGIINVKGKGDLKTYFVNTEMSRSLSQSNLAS
The note with it: read-out: AC2 Ki; Sf9 membranes, 5 mM MnCl2, 100 μM FS; mean ± SD; cited from earlier work.

Where [3] appears, read: read-out: VC1:IIC2 Mn2+ + FS + Gsα-GTPγS Ki.
Where [4] appears, read: read-out: VC1:IIC2 Mn2+ + FS Ki.

Read-outs that look alike come from different tables or passages of the source.

For `CNc1ccccc1C(=O)O[C@H]1C[C@H](n2cnc3c(=O)[nH]c(N)nc32)O[C@@H]1COP(=O)(O)OP(=O)(O)OP(=O)(O)O` [compound 2, 2’-deoxy-3’-O-(N-methylanthraniloyl)-guanosine 5’-triphosphate], the Ki on VC1:IIC2 (VC1:IIC2 Mn2+ + FS + Gsα-GTPγS Ki, maximally stimulated: 10 mM MnCl2, 100 μM FS, Gsα-GTPγS, 100 μM ATP, mean ± SD) stood at 180 ± 6.1 nM.

For the compound “2’,3’-O-anthraniloyl-adenosine 5’-triphosphate [compound 14]”, the Ki is 120 ± 20 nM at AC5 [1], 17 ± 2.4 nM on VC1:IIC2 (setting [3]) and 180 ± 57 nM on VC1:IIC2 (setting [4]).

For “2’,3’-O-anthraniloyl-adenosine 5’-diphosphate [compound 15]”, the inhibition constant Ki on AC5 [1] is 640 ± 70 nM; at VC1:IIC2 (setting [3]), 250 ± 12 nM; at VC1:IIC2 (setting [4]), 21000 nM.

On to “2’,3’-O-(N-methylanthraniloyl)-adenosine 5’-triphosphate [compound 5]”, for which the Ki was 100 ± 30 nM on AC5 [2], 330 ± 80 nM on AC2, 16 ± 6.4 nM on VC1:IIC2 (setting [3]) and 100 ± 27 nM on VC1:IIC2 (setting [4]). Further, the “Fold decrease in affinity for AC5 relative to guanine (1)” value on AC5 [1] (AC5) is on record as 2-3 fold.
